## Parent scFvs against a spike HR2 peptide, AlphaSeq assay 2

All antibodies were tested on one target, the spike HR2 peptide PDVDLGDISGINAS (SARS-CoV-2).

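The three antibodies came from panning a naive human phage display library on the peptide; each was carried in both assays of the study as a common reference. Ab-14 and Ab-95 are built VH, linker, VL, and Ab-91 VL, linker, VH. Affinity was read by AlphaSeq, a pooled yeast mating assay with surface-displayed partners. Mating (16 h, 30 °C) was followed by selection of diploids and sequencing of their barcodes. A regression on co-assayed BCL2-family reference pairs converts the normalised counts of each replicate to an apparent Kd. The assay was run in three technical replicates.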

Numbers give log10(Kd / nM), so 0 is 1 nM and 3 is 1 µM. Smaller is tighter. Entries in the file, in the order shown: MIT_14_HL_scFV; AAYL51_1, MIT_91_LH_scFV; AAYL52_1, MIT_95_HL_scFV. Names that start with MIT are the reference entries, the others are copies inside a library. Some sequences occur more than once in the pool; their replicates are listed entry by entry, parted by semicolons. Three control strains display no target. For all scFvs of this assay, 25% of the pairings with them gave a signal, with a median of 4.12 and one signal in twenty below 2.98, so weak values seen in few replicates may be background. The control count says in how many pairings with the empty strains this scFv gave a signal, with their mean in brackets.

| antibody | scFv | replicates, log10 nM | empty controls |
|---|---|---|---|
| Ab-14 | EVQLVETGGGLVQPGGSLRLSCAASGFTLNSYGISWVRQAPGKGPEWVSVIYSDGRRTFYGDSVKGRFTISRDTSTNTVYLQMNSLRVEDTAVYYCAKGRAAGTFDSWGQGTLVTVSSGGGGSGGGGSGGGGSDVVMTQSPESLAVSLGERATISCKSSQSVLYESRNKNSVAWYQQKAGQPPKLLIYWASTRESGVPDRFSGSGSGTDFTLTISSLQAEDAAVYYCQQYHRLPLSFGGGTKVEIK | 1.22 1.08 0.76 | 2/9 (4.10) |
| Ab-91 | QAVLTQPSSLSASPGASVSLTCTLRSGINVGTYRIYWYQQKPGSPPQYLLRYKSDSDKQQGSGVPSRFSGSKDASANAGILLISGLQSEDEADYYCMIWHSSAWVFGGGTKLTVLGGGGSGGGGSGGGGSEVQLVESGGGLVQPGRSLRLSCAASGFTFDDYAMHWVRQAPGKGLEWVSGISWNSGSIGYADSVKGRFTISRDNAENSLYLQMNSLRAEDTALYYCAKVGRGGGYFDYWGQGTLVTVSS | 1.02 1.15 0.46; 1.78 1.94 1.84 | 6/18 (5.15) |
| Ab-95 | EVQLVESGAEVKKPGASVKVSCKASGYTFTSYGISWVRQAPGQGLEWMGWISAYNGNTNYAQKLQGRVTMTTDTSTSTAYMELRSLRSDDTAVYYCARVGRGVIDHWGQGTLVTVSSGGGGSGGGGSGGGGSSSELTQDPAVSVALGQTVRITCEGDSLRYYYANWYQQKPGQAPILVIYGKNNRPSGIADRFSGSNSGDTSSLIITGAQAEDEADYYCSSRDSSGFQVFFGAGTKLTVL | 2.15 2.20 2.39; 2.26 2.25 2.41 | 9/18 (5.22) |

Reference: Engelhart et al. 2022, doi:10.1038/s41597-022-01779-4. File: FLAb, binding data.